Measured values: patent US20240376226A1, “COMPOSITIONS AND METHODS RELATING TO TUMOR ACTIVATED T CELL ENGAGERS” (Janux Therapeutics, Inc., priority 2019, published 2024)

What was measured:
Cetuximab (Ab-1, Ab-3) = test: Phagemid competition ELISA, Cetuximab pre-incubated with EGFR; format: binding; conditions: for Phage ELISA 2 nM EGFR % inhib: pre-incubation with 2 nM EGFR; for Phage ELISA 20 nM EGFR % inhib: pre-incubation with 20 nM EGFR
Trastuzumab (Ab-6, Ab-7) = test: Phagemid competition ELISA, Trastuzumab pre-incubated with soluble HER2; format: binding; conditions: for Phage ELISA 6 nM Her2 % inhib: pre-incubation with 6 nM soluble HER2; for Phage ELISA 20 nM Her2 % inhib: pre-incubation with 20 nM soluble HER2

Structure (SMILES): CSCC[C@@H]1NC(=O)[C@H](CC(C)C)NC(=O)[C@H](CO)NC(=O)[C@H](CCCNC(=N)N)NC(=O)[C@@H](NC(=O)[C@H](Cc2c[nH]c3ccccc23)NC(=O)[C@H](CC(=O)O)NC(=O)CNC(=O)CN)CSSC[C@@H](C(=O)N2CCC[C@H]2C(=O)NCC(=O)NCC(=O)NCC(=O)NCC(=O)N[C@@H](CO)C(=O)NCCOCCOCCOCCOCCC(=O)N[C@@H](CCCCNC(=O)CCCC[C@@H]2SC[C@@H]3NC(=O)N[C@@H]32)C(N)=O)NC(=O)[C@H](CC(C)C)NC(=O)[C@H](CC(=O)O)NC(=O)[C@H]([C@@H](C)O)NC(=O)[C@H](Cc2ccc(O)cc2)NC(=O)[C@H](CO)NC1=O [Peptide-1]
- Phage ELISA 2 nM EGFR % inhib (Cetuximab (Ab-1, Ab-3)): 94%
- Phage ELISA 20 nM EGFR % inhib (Cetuximab (Ab-1, Ab-3)): 94%

Structure (SMILES): CC[C@H](C)[C@@H]1NC(=O)[C@H](CC(C)C)NC(=O)[C@H](Cc2c[nH]cn2)NC(=O)[C@H](C)NC(=O)[C@H](CC(=O)O)NC(=O)[C@H](C)NC(=O)[C@@H](NC(=O)[C@H](CO)NC(=O)[C@@H](NC(=O)CNC(=O)CN)[C@@H](C)O)CSSC[C@@H](C(=O)N[C@@H](CO)C(=O)NCC(=O)NCC(=O)NCC(=O)NCC(=O)N[C@@H](CO)C(=O)NCCOCCOCCOCCOCCC(=O)N[C@@H](CCCCNC(=O)CCCC[C@@H]2SC[C@@H]3NC(=O)N[C@@H]32)C(N)=O)NC(=O)[C@H](CO)NC(=O)[C@@H]2CCCN2C(=O)[C@H](C)NC1=O [Peptide-2]
- Phage ELISA 2 nM EGFR % inhib (Cetuximab (Ab-1, Ab-3)): 85%
- Phage ELISA 20 nM EGFR % inhib (Cetuximab (Ab-1, Ab-3)): 86%

Structure (SMILES): CC(C)[C@@H]1NC(=O)[C@H](CCCNC(=N)N)NC(=O)[C@H](CC(=O)O)NC(=O)[C@H](Cc2c[nH]c3ccccc23)NC(=O)[C@H](CCC(N)=O)NC(=O)[C@@H](NC(=O)[C@H](CC(N)=O)NC(=O)CNC(=O)CN)CSSC[C@@H](C(=O)N[C@@H](CO)C(=O)NCC(=O)NCC(=O)NCC(=O)NCC(=O)N[C@@H](CO)C(=O)NCCOCCOCCOCCOCCC(=O)N[C@@H](CCCCNC(=O)CCCC[C@@H]2SC[C@@H]3NC(=O)N[C@@H]32)C(N)=O)NC(=O)[C@H](C)NC(=O)[C@H](Cc2ccc(O)cc2)NC(=O)[C@H]([C@@H](C)O)NC(=O)[C@H](Cc2c[nH]cn2)NC(=O)[C@H](CCC(=O)O)NC1=O [Peptide-3]
- Phage ELISA 2 nM EGFR % inhib (Cetuximab (Ab-1, Ab-3)): 95%
- Phage ELISA 20 nM EGFR % inhib (Cetuximab (Ab-1, Ab-3)): 95%

Structure (SMILES): CSCC[C@@H]1NC(=O)[C@H](Cc2c[nH]cn2)NC(=O)[C@H](CO)NC(=O)CNC(=O)[C@H](CC(=O)O)NC(=O)[C@H](Cc2c[nH]cn2)NC(=O)[C@@H](NC(=O)[C@H](CO)NC(=O)[C@@H](NC(=O)[C@H](Cc2c[nH]c3ccccc23)NC(=O)CNC(=O)CN)C(C)C)CSSC[C@@H](C(=O)N[C@@H](Cc2ccccc2)C(=O)N[C@@H](Cc2c[nH]cn2)C(=O)NCC(=O)NCC(=O)NCC(=O)NCC(=O)N[C@@H](CO)C(=O)NCCOCCOCCOCCOCCC(=O)N[C@@H](CCCCNC(=O)CCCC[C@@H]2SC[C@@H]3NC(=O)N[C@@H]32)C(N)=O)NC(=O)[C@H]([C@@H](C)O)NC1=O [Peptide-4]
- Phage ELISA 2 nM EGFR % inhib (Cetuximab (Ab-1, Ab-3)): 39%
- Phage ELISA 20 nM EGFR % inhib (Cetuximab (Ab-1, Ab-3)): 39%

Structure (SMILES): CSCC[C@H](NC(=O)CNC(=O)CN)C(=O)N[C@@H](CC(N)=O)C(=O)N[C@H]1CSSC[C@@H](C(=O)N[C@@H](CC(C)C)C(=O)N[C@H](C(=O)NCC(=O)NCC(=O)NCC(=O)NCC(=O)N[C@@H](CO)C(=O)NCCOCCOCCOCCOCCC(=O)N[C@@H](CCCCNC(=O)CCCC[C@@H]2SC[C@@H]3NC(=O)N[C@@H]32)C(N)=O)C(C)C)NC(=O)[C@H](Cc2ccc(O)cc2)NC(=O)[C@H](CCC(=O)O)NC(=O)[C@H](C(C)C)NC(=O)[C@H](Cc2c[nH]c3ccccc23)NC(=O)[C@H](CC(C)C)NC(=O)[C@H](CCCNC(=N)N)NC(=O)[C@H](CC(N)=O)NC(=O)[C@H](CC(C)C)NC1=O [Peptide-5]
- Phage ELISA 2 nM EGFR % inhib (Cetuximab (Ab-1, Ab-3)): 39%
- Phage ELISA 20 nM EGFR % inhib (Cetuximab (Ab-1, Ab-3)): 20%

Structure (SMILES): CC[C@H](C)[C@@H]1NC(=O)[C@H](Cc2c[nH]cn2)NC(=O)[C@H](CC(=O)O)NC(=O)[C@H](CC(C)C)NC(=O)[C@H](CC(=O)O)NC(=O)[C@H](CO)NC(=O)[C@@H](NC(=O)[C@H](CC(C)C)NC(=O)[C@@H]2CCCN2C(=O)CNC(=O)CN)CSSC[C@@H](C(=O)N[C@@H](CC(=O)O)C(=O)NCC(=O)NCC(=O)NCC(=O)NCC(=O)N[C@@H](CO)C(=O)NCCOCCOCCOCCOCCC(=O)N[C@@H](CCCCNC(=O)CCCC[C@@H]2SC[C@@H]3NC(=O)N[C@@H]32)C(N)=O)NC(=O)[C@H](CC(C)C)NC(=O)[C@H](CCCNC(=N)N)NC(=O)[C@H]([C@@H](C)O)NC1=O [Peptide-8]
- Phage ELISA 6 nM Her2 % inhib (Trastuzumab (Ab-6, Ab-7)): 92%
- Phage ELISA 20 nM Her2 % inhib (Trastuzumab (Ab-6, Ab-7)): 96%

Structure (SMILES): CC(C)C[C@@H]1NC(=O)[C@H]([C@@H](C)O)NC(=O)[C@@H](NC(=O)[C@@H](NC(=O)[C@@H]2CCCN2C(=O)[C@H](CC(N)=O)NC(=O)CNC(=O)CN)C(C)C)CSSC[C@@H](C(=O)N[C@@H](CO)C(=O)N[C@@H](Cc2c[nH]cn2)C(=O)NCC(=O)NCC(=O)NCC(=O)NCC(=O)N[C@@H](CO)C(=O)NCCOCCOCCOCCOCCC(=O)N[C@@H](CCCCNC(=O)CCCC[C@@H]2SC[C@@H]3NC(=O)N[C@@H]32)C(N)=O)NC(=O)[C@H](CCC(=O)O)NC(=O)[C@H](Cc2ccc(O)cc2)NC(=O)[C@@H]2CCCN2C(=O)[C@H](CC(=O)O)NC(=O)CNC1=O [Peptide-10]
- Phage ELISA 6 nM Her2 % inhib (Trastuzumab (Ab-6, Ab-7)): 94%
- Phage ELISA 20 nM Her2 % inhib (Trastuzumab (Ab-6, Ab-7)): 94%

Structure (SMILES): CC(C)C[C@@H]1NC(=O)[C@H](CCC(N)=O)NC(=O)[C@@H](NC(=O)[C@H](Cc2ccccc2)NC(=O)[C@@H](NC(=O)CNC(=O)CN)[C@@H](C)O)CSSC[C@@H](C(=O)N[C@@H](CCC(N)=O)C(=O)N[C@@H](CO)C(=O)NCC(=O)NCC(=O)NCC(=O)NCC(=O)N[C@@H](CO)C(=O)NCCOCCOCCOCCOCCC(=O)N[C@@H](CCCCNC(=O)CCCC[C@@H]2SC[C@@H]3NC(=O)N[C@@H]32)C(N)=O)NC(=O)[C@H](CCC(=O)O)NC(=O)[C@H](Cc2ccc(O)cc2)NC(=O)[C@@H]2CCCN2C(=O)[C@H](CC(=O)O)NC(=O)[C@H](C)NC(=O)[C@H](CC(N)=O)NC1=O [Peptide-11]
- Phage ELISA 6 nM Her2 % inhib (Trastuzumab (Ab-6, Ab-7)): 95%
- Phage ELISA 20 nM Her2 % inhib (Trastuzumab (Ab-6, Ab-7)): 96%

Structure (SMILES): CC[C@H](C)[C@@H]1NC(=O)[C@H](CC(C)C)NC(=O)[C@H](CCC(=O)O)NC(=O)[C@@H](NC(=O)[C@H](Cc2ccc(O)cc2)NC(=O)CNC(=O)CNC(=O)CN)CSSC[C@@H](C(=O)N[C@@H](CO)C(=O)N2CCC[C@H]2C(=O)NCC(=O)NCC(=O)NCC(=O)NCC(=O)N[C@@H](CO)C(=O)NCCOCCOCCOCCOCCC(=O)N[C@@H](CCCCNC(=O)CCCC[C@@H]2SC[C@@H]3NC(=O)N[C@@H]32)C(N)=O)NC(=O)[C@H](C(C)C)NC(=O)[C@H](C(C)C)NC(=O)[C@H](Cc2ccc(O)cc2)NC(=O)[C@H](CC(=O)O)NC(=O)CNC1=O [Peptide-12]
- Phage ELISA 6 nM Her2 % inhib (Trastuzumab (Ab-6, Ab-7)): 95%
- Phage ELISA 20 nM Her2 % inhib (Trastuzumab (Ab-6, Ab-7)): 95%

Structure (SMILES): CC[C@H](C)[C@@H]1NC(=O)[C@H](Cc2c[nH]c3ccccc23)NC(=O)CNC(=O)[C@H](Cc2c[nH]c3ccccc23)NC(=O)[C@H](CCCNC(=N)N)NC(=O)[C@H](CC(=O)O)NC(=O)[C@@H](NC(=O)[C@H](CC(C)C)NC(=O)CNC(=O)CN)CSSC[C@@H](C(=O)N[C@@H](Cc2c[nH]cn2)C(=O)NCC(=O)NCC(=O)NCC(=O)NCC(=O)N[C@@H](CO)C(=O)NCCOCCOCCOCCOCCC(=O)N[C@@H](CCCCNC(=O)CCCC[C@@H]2SC[C@@H]3NC(=O)N[C@@H]32)C(N)=O)NC(=O)[C@H](Cc2ccc(O)cc2)NC(=O)[C@@H]2CCCN2C(=O)[C@H](C)NC(=O)[C@H](CC(=O)O)NC1=O [Peptide-13]
- Phage ELISA 6 nM Her2 % inhib (Trastuzumab (Ab-6, Ab-7)): 82%
- Phage ELISA 20 nM Her2 % inhib (Trastuzumab (Ab-6, Ab-7)): 96%

Structure (SMILES): C[C@@H](O)[C@H](NC(=O)CNC(=O)CN)C(=O)NCC(=O)N[C@H]1CSSC[C@@H](C(=O)N[C@@H](CO)C(=O)NCC(=O)NCC(=O)NCC(=O)NCC(=O)N[C@@H](CO)C(=O)NCCOCCOCCOCCOCCC(=O)N[C@@H](CCCCNC(=O)CCCC[C@@H]2SC[C@@H]3NC(=O)N[C@@H]32)C(N)=O)NC(=O)[C@H]([C@@H](C)O)NC(=O)CNC(=O)[C@H](Cc2c[nH]c3ccccc23)NC(=O)[C@H](Cc2c[nH]cn2)NC(=O)[C@H](Cc2c[nH]c3ccccc23)NC(=O)[C@H](Cc2c[nH]cn2)NC(=O)CNC(=O)[C@H](CCC(=O)O)NC(=O)[C@H]([C@@H](C)O)NC1=O [Peptide-14]
- Phage ELISA 6 nM Her2 % inhib (Trastuzumab (Ab-6, Ab-7)): 80%
- Phage ELISA 20 nM Her2 % inhib (Trastuzumab (Ab-6, Ab-7)): 91%

Structure (SMILES): CC(C)C[C@@H]1NC(=O)[C@H](CO)NC(=O)[C@H](Cc2c[nH]c3ccccc23)NC(=O)[C@H](CC(=O)O)NC(=O)CNC(=O)[C@H](Cc2ccccc2)NC(=O)[C@H]([C@@H](C)O)NC(=O)[C@@H](NC(=O)[C@H](CO)NC(=O)[C@H](Cc2c[nH]cn2)NC(=O)CNC(=O)CN)CSSC[C@@H](C(=O)N[C@@H](C)C(=O)NCC(=O)NCC(=O)NCC(=O)NCC(=O)N[C@@H](CO)C(=O)NCCOCCOCCOCCOCCC(=O)N[C@@H](CCCCNC(=O)CCCC[C@@H]2SC[C@@H]3NC(=O)N[C@@H]32)C(N)=O)NC(=O)[C@H]([C@@H](C)O)NC(=O)CNC1=O [Peptide-16]
- Phage ELISA 6 nM Her2 % inhib (Trastuzumab (Ab-6, Ab-7)): 85%
- Phage ELISA 20 nM Her2 % inhib (Trastuzumab (Ab-6, Ab-7)): 98%

Structure (SMILES): CC[C@H](C)[C@H](NC(=O)[C@H](Cc1ccccc1)NC(=O)CNC(=O)CN)C(=O)N[C@H]1CSSC[C@@H](C(=O)N[C@@H](CCC(=O)O)C(=O)NCC(=O)NCC(=O)NCC(=O)NCC(=O)N[C@@H](CO)C(=O)NCCOCCOCCOCCOCCC(=O)N[C@@H](CCCCNC(=O)CCCC[C@@H]2SC[C@@H]3NC(=O)N[C@@H]32)C(N)=O)NC(=O)[C@H](CO)NC(=O)CNC(=O)[C@H](CC(=O)O)NC(=O)[C@H](Cc2c[nH]c3ccccc23)NC(=O)[C@H](Cc2c[nH]c3ccccc23)NC(=O)[C@H](CC(N)=O)NC(=O)CNC(=O)[C@H](CC(C)C)NC(=O)[C@H]([C@@H](C)O)NC1=O [Peptide-17]
- Phage ELISA 6 nM Her2 % inhib (Trastuzumab (Ab-6, Ab-7)): 97%
- Phage ELISA 20 nM Her2 % inhib (Trastuzumab (Ab-6, Ab-7)): 97%
